Assay results: ChEMBL document CHEMBL4000206, “An efficient anticoagulant candidate: Characterization, synthesis and in vivo study of a fondaparinux analogue Rrt1.17” (Eur J Med Chem, 2017)

Sequences of proteins named here, by UniProt entry; tags and fusion partners are left off.
UniProt P00742, whole entry: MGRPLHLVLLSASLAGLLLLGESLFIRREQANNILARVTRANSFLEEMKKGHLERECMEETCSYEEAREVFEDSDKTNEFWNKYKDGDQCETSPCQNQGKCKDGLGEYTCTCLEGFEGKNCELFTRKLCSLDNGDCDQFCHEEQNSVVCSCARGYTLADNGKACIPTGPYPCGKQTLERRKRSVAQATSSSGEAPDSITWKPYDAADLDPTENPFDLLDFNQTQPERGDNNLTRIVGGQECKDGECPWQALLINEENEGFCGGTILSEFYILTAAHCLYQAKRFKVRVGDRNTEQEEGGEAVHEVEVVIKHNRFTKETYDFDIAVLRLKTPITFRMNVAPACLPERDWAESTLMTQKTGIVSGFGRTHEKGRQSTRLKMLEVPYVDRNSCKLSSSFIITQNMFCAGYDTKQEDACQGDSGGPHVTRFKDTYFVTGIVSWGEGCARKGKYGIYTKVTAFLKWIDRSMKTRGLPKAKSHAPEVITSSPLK

Molecular target: Coagulation factor X (Homo sapiens, UniProt P00742)
Test: Inhibition of factor 10a (unknown origin) using S-2765 as substrate assessed as compound potency preincubated with AT-3 followed by factor 10a addition for 60 secs and subsequent addition of substrate for 60 secs measured after 4 mins

INH: 135 IU/mg
Structure (SMILES): CC.O=C(O)[C@H]1O[C@@H](O[C@H]2[C@H](OS(=O)(=O)O)[C@@H](NS(=O)(=O)O)[C@H](O[C@H]3[C@H](O)[C@@H](OS(=O)(=O)O)[C@H](O[C@@H]4[C@H](O)[C@@H](CO)O[C@@H]4CS(=O)(=O)O)O[C@H]3C(=O)O)O[C@@H]2COS(=O)(=O)O)[C@H](O)[C@@H](O)[C@@H]1O[C@H]1O[C@H](COS(=O)(=O)O)[C@@H](O)[C@H](O)[C@H]1NS(=O)(=O)O
